The structures appear in SMILES notation.

In one test the test system is MCF-7 cells. The test is described as follows: Cell viability (MTT), MCF-7. It is filed as cell-based. Particulars: read-out: IC50 MCF-7, 24 h, mean ± SD of three independent experiments.
The next test concerns HL-60 cells. The test is described as follows: Cell viability (MTT), HL-60. In kind it is cell-based, human. As to conditions: read-out: IC50 HL-60, 24 h, mean ± SD of three independent experiments.
Another test concerns SGC7901 cells. The test is described as follows: Cell viability (MTT), SGC7901. In kind it is cell-based. As to conditions: read-out: IC50 SGC7901, 24 h, mean ± SD of three independent experiments.
Another test deals with GES-1 cells. Briefly: Cell viability (MTT), GES-1 normal cells. It is filed as cell-based. Particulars: read-out: IC50 GES-1, 24 h, mean ± SD of three independent experiments.

As for `O=[As]c1ccc(N=Cc2c[nH]c3ccccc23)cc1` (stereo not shown), the half-maximal inhibitory concentration (IC50) turned out to be 69 µM in the test on MCF-7 cells, 13.9 µM with HL-60 cells, 155 µM with SGC7901 cells and 83.3 µM in the test with GES-1 cells.

The values above are taken from paper PMC4949440 (Scientific Reports, 2016).
